The first assay concerns memory CD8+ T cells. In kind it is cell-based, human.
As to ACTDDNALAY, the “# of patients enriching epitope >1.5 (moderate stringency)” value is listed as 5, the “# of patients enriching epitope >5 (high stringency)” value stood at 1, the A01-01-01-030 amounted to 6.71 and the A01-01-02-019 was 4.08. The A0101_01-01-003 was determined as 4.00, the A0101_01-01-007 is on record as 1.55 and the A0101_01-01-009 turned out to be 3.23.

As to ACTDDNALAYY, the “# of patients enriching epitope >1.5 (moderate stringency)” value is 5, the “# of patients enriching epitope >5 (high stringency)” value is 1, the A01-01-01-030 is given as 6.71 and the A01-01-02-019 is on record as 4.08. The sequence further yielded an A0101_01-01-003 of 4.00, an A0101_01-01-007 of 1.55 and an A0101_01-01-009 of 3.23.

For the sequence ATSRTLSYYK [compound 23], the “% of Pts (Screen)” value is reported as 60%.

With CVADYSVLY, the “# of patients enriching epitope >1.5 (moderate stringency)” value is 5, the “# of patients enriching epitope >5 (high stringency)” value amounted to 3, the A03_01-01-006 is listed as 7.82 and the A03_01-01-008 stood at 5.13. In addition, the A03_01-02-002 is on record as 7.38, the A03_01-02-004 turned out to be 1.67 and the A03_01-02-010 was 2.03.

In the case of DTDFVNEFY [compound 13], the “% of Pts (Screen)” value came to 40%.

Turning to EIPRRNVATL, the “# of patients enriching epitope >1.5 (moderate stringency)” value came to 1; the “# of patients enriching epitope >5 (high stringency)” value is listed as 0; the “enrichment of epitope in T-Scan screen, patient B07_01-01-022” value stood at 0.13; the “enrichment of epitope in T-Scan screen, patient B0702_01-01-021” value stood at 0.52. In addition, the “enrichment of epitope in T-Scan screen, patient B0702_01-01-030” value was 1.26; the “enrichment of epitope in T-Scan screen, patient B0702_01-02-002” value is reported as 3.56; the “enrichment of epitope in T-Scan screen, patient B0702_01-02-004” value is 0.80.

As for IPRRNVATLQ, the “# of patients enriching epitope >1.5 (moderate stringency)” value is reported as 1; the “# of patients enriching epitope >5 (high stringency)” value came to 0; the “enrichment of epitope in T-Scan screen, patient B07_01-01-022” value worked out at 0.13; the “enrichment of epitope in T-Scan screen, patient B0702_01-01-021” value is on record as 0.56. For the same sequence, the “enrichment of epitope in T-Scan screen, patient B0702_01-01-030” value was found to be 1.30; the “enrichment of epitope in T-Scan screen, patient B0702_01-02-002” value is recorded as 3.83; the “enrichment of epitope in T-Scan screen, patient B0702_01-02-004” value came out at 0.86.

KCYGVSPTK: the “# of patients enriching epitope >1.5 (moderate stringency)” value is 5, the “# of patients enriching epitope >5 (high stringency)” value was 3, the A03_01-01-006 amounted to 12.94 and the A03_01-01-008 amounted to 9.24. Besides, the A03_01-02-002 was found to be 12.60, the A03_01-02-004 was 2.17 and the A03_01-02-010 amounted to 3.05.

As to LLLDRLNQL [compound 5], the “% of Pts (Screen)” value came out at 33.3%.

NLVPMVATV [reference compound]: the “reactivity to control epitope in the screen” value is recorded as “detected”.

Consider QIAPGQTGK, for which the “# of patients enriching epitope >1.5 (moderate stringency)” value amounted to 4, the “# of patients enriching epitope >5 (high stringency)” value stood at 3, the A03_01-01-006 was determined as 5.98 and the A03_01-01-008 was determined as 5.07. For the same sequence, the A03_01-02-002 is on record as 7.06, the A03_01-02-004 is 1.46 and the A03_01-02-010 is 1.78.

For the sequence QLPQGTTLPK, the “# of patients enriching epitope >1.5 (moderate stringency)” value is listed as 2, the “# of patients enriching epitope >5 (high stringency)” value was found to be 0, the A03_01-01-006 is 1.16 and the A03_01-01-008 was 1.57. The sequence also registered an A03_01-02-002 of 1.14, an A03_01-02-004 of 1.96 and an A03_01-02-010 of 1.35.

On to STFKCYGVSPTK, for which the “# of patients enriching epitope >1.5 (moderate stringency)” value worked out at 5, the “# of patients enriching epitope >5 (high stringency)” value is 3, the A03_01-01-006 is reported as 12.94 and the A03_01-01-008 was determined as 9.24. Further, the A03_01-02-002 amounted to 12.60, the A03_01-02-004 is given as 2.17 and the A03_01-02-010 worked out at 3.05.

TACTDDNALAYY: the “# of patients enriching epitope >1.5 (moderate stringency)” value stood at 5, the “# of patients enriching epitope >5 (high stringency)” value was found to be 1, the A01-01-01-030 was 6.71 and the A01-01-02-019 is reported as 4.08. The A0101_01-01-003 amounted to 4.00, the A0101_01-01-007 is given as 1.55 and the A0101_01-01-009 is given as 3.23.

The test system of the next assay is memory CD8+ T cells. In kind it is cell-based, human. The source holds these as a separate data set.
For the sequence LLYDANYFL [compound 3], the “% of Pts (Tetramer)” value is given as 55.5%.
